Where two headings read alike, the source gives them in different places.

Sequences of proteins named here, by UniProt entry; tags and fusion partners are left off.
UniProt Q15418, whole entry, species assumed: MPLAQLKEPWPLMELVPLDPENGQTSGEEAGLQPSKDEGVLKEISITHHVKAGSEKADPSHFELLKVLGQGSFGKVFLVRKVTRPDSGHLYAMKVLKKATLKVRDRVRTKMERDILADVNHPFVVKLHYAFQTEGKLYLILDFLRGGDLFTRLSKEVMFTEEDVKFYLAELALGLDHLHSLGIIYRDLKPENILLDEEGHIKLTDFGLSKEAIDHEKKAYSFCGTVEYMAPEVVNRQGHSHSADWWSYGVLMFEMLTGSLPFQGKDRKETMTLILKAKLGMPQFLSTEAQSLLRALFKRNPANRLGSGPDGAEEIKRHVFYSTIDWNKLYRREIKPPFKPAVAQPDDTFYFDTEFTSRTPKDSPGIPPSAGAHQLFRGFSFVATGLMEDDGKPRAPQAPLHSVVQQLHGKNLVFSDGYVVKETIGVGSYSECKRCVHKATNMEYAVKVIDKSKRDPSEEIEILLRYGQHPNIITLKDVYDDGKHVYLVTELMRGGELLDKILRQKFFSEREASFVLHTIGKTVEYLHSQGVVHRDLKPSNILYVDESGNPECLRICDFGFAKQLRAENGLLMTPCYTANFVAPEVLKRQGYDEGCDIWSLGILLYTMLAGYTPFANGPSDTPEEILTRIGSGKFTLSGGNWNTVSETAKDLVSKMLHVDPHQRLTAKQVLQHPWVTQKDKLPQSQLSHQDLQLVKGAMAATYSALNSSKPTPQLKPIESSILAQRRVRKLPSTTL
UniProt P28482, whole entry: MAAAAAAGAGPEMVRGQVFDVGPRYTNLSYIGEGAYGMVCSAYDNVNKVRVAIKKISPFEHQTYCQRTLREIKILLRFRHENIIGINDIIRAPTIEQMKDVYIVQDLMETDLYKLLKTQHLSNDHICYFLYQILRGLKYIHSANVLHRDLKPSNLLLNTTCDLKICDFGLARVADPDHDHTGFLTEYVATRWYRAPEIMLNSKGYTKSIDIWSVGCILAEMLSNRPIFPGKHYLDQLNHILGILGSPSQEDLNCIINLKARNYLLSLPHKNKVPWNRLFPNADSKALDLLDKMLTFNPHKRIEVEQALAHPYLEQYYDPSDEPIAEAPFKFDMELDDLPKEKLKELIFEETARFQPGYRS
UniProt P51812, whole entry, species assumed: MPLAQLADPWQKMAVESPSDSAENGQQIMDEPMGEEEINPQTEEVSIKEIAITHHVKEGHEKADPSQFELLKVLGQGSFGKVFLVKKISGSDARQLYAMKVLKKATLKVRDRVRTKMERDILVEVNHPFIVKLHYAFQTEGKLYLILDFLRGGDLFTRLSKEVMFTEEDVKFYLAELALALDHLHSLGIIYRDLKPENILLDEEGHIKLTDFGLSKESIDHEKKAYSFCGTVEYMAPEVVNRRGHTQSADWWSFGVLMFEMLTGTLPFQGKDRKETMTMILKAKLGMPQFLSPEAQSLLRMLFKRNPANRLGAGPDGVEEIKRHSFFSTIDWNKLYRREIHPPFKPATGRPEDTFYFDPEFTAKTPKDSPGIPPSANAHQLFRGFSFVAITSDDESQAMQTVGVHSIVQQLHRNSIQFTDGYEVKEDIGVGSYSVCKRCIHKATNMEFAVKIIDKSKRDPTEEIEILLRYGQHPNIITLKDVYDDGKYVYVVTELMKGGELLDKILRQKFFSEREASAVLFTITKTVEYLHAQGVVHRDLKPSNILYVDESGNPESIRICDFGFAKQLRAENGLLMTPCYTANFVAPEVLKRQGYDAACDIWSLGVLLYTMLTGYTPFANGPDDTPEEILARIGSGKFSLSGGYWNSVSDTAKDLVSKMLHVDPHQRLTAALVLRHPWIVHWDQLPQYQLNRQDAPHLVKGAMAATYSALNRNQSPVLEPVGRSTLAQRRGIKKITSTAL

Format in all cases: biochemical
In one assay the target is RSK1 (Homo sapiens (Human), UniProt Q15418). Briefly: In vitro inhibition of RSK1. To be noted: in vitro activity on RSK1. The protocol: (§1) The following Table 3 lists compounds that were tested for inhibition of RSK; the IC50 values are in micromolar units, and refer to inhibition of RSK1 and RSK2, respectively. Where multiple measurements were made, each value is reported.

For a further assay, the target named is activated ERK2 (Homo sapiens (Human), UniProt P28482). Briefly: Activated ERK2 kinase assay (AlphaScreen, ERKtide peptide phosphorylation). The source says:
Production of Activated ERK2 Protein:
Activated ERK2 protein was generated in insect cells by co-expression with a constitutively active form of MEK1. The ERK2 protein was expressed and purified as a nHis-PreScission-ERK2 tagged protein and then proteolytically processed to the full-length wild-type protein. The resulting ERK2 protein was a mixture of phosphorylation states. Double-phosphorylated ERK2 protein was purified from the mixture by mono-Q column separation.
Activated ERK2 Kinase Assay:
Compound potency against activated ERK2 was determined using a kinase assay that measures ERK2-catalyzed phosphorylation of biotinylated ERKtide peptide substrate ([Biotin]-AH[…]- [NH2], the peptide sequence derived from EGF receptor: SEQ ID NO:1). The assay was carried out in 50 mM HEPES [pH 7.5], 5 mM MgCl2, 1 mM DTT, 0.01% Tween-20, 0.05% BSA using 0.25 nM ERK2, 200 nM ERKtide peptide and 35 μM ATP (all concentrations are final in the reaction) in a total volume of 10.25 μL. A 16-point, half-log dilution series of compounds at 41× final concentration was used for generating IC50 curves. Compound dilution series were prepared in 100% DMSO. ERK2 was preincubated with compounds for 30 minutes at ambient temperature. Reaction was initiated by addition of a substrate cocktail of ERKtide peptide and ATP and was allowed to proceed for 2-3 hours at ambient temperature. Reaction was terminated by addition of 10 μL of a 2× stop buffer consisting of 100 mM Tris-Cl [pH 7.5], 25 mM EDTA, 0.01% Tween 20, 10 μg/mL of AlphaScreen Protein A Acceptor Beads, 10 μg/mL of Streptavidin Donor Beads (PerkinElmer, Waltham, Mass.), and 1.4 μg/mL phospho-EGF Receptor (Thr669) antibody (Cat #3056, Cell Signaling Technology, Danvers, Mass.). Terminated reactions were read, after overnight incubation in the dark, on an EnVision Multilabel Plate Reader (PerkinElmer, Waltham, Mass.), with excitation and emission wavelengths set to 680 nm and 570 nm, respectively. IC50 values were determined using a four-parameter fit. Table 2 provides biological test data for the compounds of Table 1 produced using this assay method.

The target of the next assay is RSK2 (Homo sapiens (Human), UniProt P51812). Briefly: In vitro inhibition of RSK2. The conditions noted are these: in vitro activity on RSK2; where multiple measurements were made, each value is reported. As for the experimental part: as §1
[1] abbreviates: 0.25 nM ERK2, 200 nM ERKtide peptide, 35 μM ATP, 30 min preincubation, read-out: ERK2 IC50.

Consider `CN(C)C[C@@H](NC(=O)N1Cc2nc(Nc3ccccc3)ncc2C1(C)C)c1ccccc1` [compound 148, (S)-N-(2-(dimethylamino)-1-phenylethyl)-5,5-dimethyl-2-(phenylamino)-5H-pyrrolo[3,4-d]pyrimidine-6(7H)-carboxamide], for which the half-inhibitory concentration (IC50) against RSK1 came to 94 nM; on activated ERK2 (setting [1]) it was 448 nM.

The compound `C[C@H](CN(C)C)NC(=O)N1Cc2nc(Nc3ccccc3)ncc2C1(C)C` [compound 150, (R)-N-(1-(dimethylamino)propan-2-yl)-5,5-dimethyl-2-(phenylamino)-5H-pyrrolo[3,4-d]pyrimidine-6(7H)-carboxamide] yielded a concentration for half-maximal inhibition (IC50) at RSK2 of 906 nM.

Take `CC(CN(C)C)NC(=O)N1Cc2nc(Nc3ccccc3)ncc2C1(C)C` (centres unmarked) [compound 152, N-(1-(dimethylamino)propan-2-yl)-5,5-dimethyl-2-(phenylamino)-5H-pyrrolo[3,4-d]pyrimidine-6(7H)-carboxamide]: the 50% inhibitory concentration (IC50) came to 1360 nM on RSK2, 1230 nM against RSK1 and 29100 nM at activated ERK2 (setting [1]).

Turning to `C[C@@H](NC(=O)N1Cc2nc(Nc3ccccc3)ncc2C1(C)C)c1ccccc1` [compound 156, (R)-5,5-dimethyl-2-(phenylamino)-N-(1-phenylethyl)-5H-pyrrolo[3,4-d]pyrimidine-6(7H)-carboxamide], the half-inhibitory concentration (IC50) turned out to be 3600 nM against RSK1 and 117 nM at activated ERK2 (setting [1]).

The compound `C[C@@H](CN(C)C)NC(=O)N1Cc2nc(Nc3ccccc3)ncc2C1(C)C` [compound 167, (S)-N-(1-(dimethylamino)propan-2-yl)-5,5-dimethyl-2-(phenylamino)-5H-pyrrolo[3,4-d]pyrimidine-6(7H)-carboxamide] returned a half-maximal inhibitory concentration (IC50) against RSK2 of 17500 nM.

As to `CN(C)C[C@H](NC(=O)N1Cc2nc(Nc3ccccc3)ncc2C1(C)C)c1ccccc1` [compound 168, (R)-N-(2-(dimethylamino)-1-phenylethyl)-5,5-dimethyl-2-(phenylamino)-5H-pyrrolo[3,4-d]pyrimidine-6(7H)-carboxamide], the IC50 on RSK2 turned out to be 20200 nM; at RSK1 it was 17700 nM.

Turning to `C[C@H](NC(=O)N1Cc2nc(Nc3ccccc3)ncc2C1(C)C)c1ccccc1` [compound 169, (S)-5,5-dimethyl-2-(phenylamino)-N-(1-phenylethyl)-5H-pyrrolo[3,4-d]pyrimidine-6(7H)-carboxamide], the concentration for half-maximal inhibition (IC50) at activated ERK2 (setting [1]) was 35300 nM.

As for `CC1c2cnc(NC3CCOCC3)nc2CN1C(=O)N[C@H](C)c1cccc(Cl)c1` (stereo partly drawn) [compound 170, N-((R)-1-(3-chlorophenyl)ethyl)-5-methyl-2-((tetrahydro-2H-pyran-4-yl)amino)-5H-pyrrolo[3,4-d]pyrimidine-6(7H)-carboxamide], the half-maximal inhibitory concentration (IC50) at activated ERK2 (setting [1]) was 1.54 nM; on activated ERK2 (comparative example text, read-out: IC50 on ERK2), 1.5 nM.

(Values after patent US9546173B2 (Novartis AG, priority 2012, dated 2017).)
